{
  "source": "patent US7713477B2",
  "about": "“Systems and methods for monitoring chemical and biological activities using differential measurements” (priority 2002, dated 2010)",
  "molecules": {"B1": {"name": "IL3: interleukin tested on TF-1 cells (protein, UniProt P08700 20-152, looked up)", "Interleukin-3": "APMTQTTPLKTSWVNCSNMIDEIITHLKQPPLPLLDFNNLNGEDQDILMENNLRRPNLEAFNRAVKSLQNASAIESILKNLLPCLPLATAAPTRHPIHIKDGDWNEFRRKLTFYLKTLENAQAQQTTLSLAIF"}},
  "key": {"TF-1 cells [1]": {"test_system": "TF-1 cells", "details": "stated as known, background knowledge; cited from earlier work"}, "TF-1 cells [2]": {"test_system": "TF-1 cells", "experiment": "Differential response of TF-1 cells against stimuli and controls at one, two and five minutes (FIG. 9B)", "assay_type": "cell-based", "details": "two and five minutes after stimulation, factor 100:1 dilution in d-PBS, 25 microliter into approximately 200 microliters cell suspension", "source_text": "In this set of experiments, the monitoring system as shown in FIG. 8 was used to directly compare the activity of a known modification of the extra-cellular environment to controls. In the monitoring system of FIG. 8, two sample chambers (formed a fluid channels) 800a and 800b, along with four ports 801a-d, were fabricated using micromachining techniques on an acrylic substrate. The dimensions of the channels were approximately 250 micrometers wide, 100 micrometers deep, and with a total length of approximately 1.5 centimeters. The substrate was fastened in a water-tight manner, using thin film epoxy, to a pre-fabricated printed circuit board (not explicitly shown), on which eight gold-plated copper conductive traces 820a-d and 830a-d of width approximately 250 micrometers were deposited. […]\nFIG. 9B illustrates a second set of experiments, in which the differential responses of a population of TF-1 cells against numerous stimuli and controls are shown at one minute, two minutes, and five minutes after stimulation. […] One of the two fractions received a potential stimulus, and the other a control in the form of a quantity of pure Dulbecco's phosphate buffered saline (d-PBS)equal to the quantity of d-PBS which contained the stimulant. […]"}},
  "data": [
    {"molecule": "IL-2: interleukin tested on TF-1 cells", "values": [
      {"measurement": "known activity against TF-1 cells", "setting": "TF-1 cells [1]", "result": "known not to have any significant activities against TF-1 cells"}
    ]},
    {"molecule": "B1", "values": [
      {"measurement": "differential response over the three controls", "setting": "TF-1 cells [2]", "result": "significantly larger differential response over the three controls"}
    ]}
  ]
}
